## Antibody variant affinities, Ab-14 heavy chain, assay 1

Values reported by Engelhart et al. 2022, doi:10.1038/s41597-022-01779-4 (FLAb copy).

Target peptide (SARS-CoV-2 spike, HR2 region): PDVDLGDISGINAS

The variants keep the light chain, the linker and the frameworks of Ab-14 (scFv order VH, a (GGGGS)3 linker, VL).
VH: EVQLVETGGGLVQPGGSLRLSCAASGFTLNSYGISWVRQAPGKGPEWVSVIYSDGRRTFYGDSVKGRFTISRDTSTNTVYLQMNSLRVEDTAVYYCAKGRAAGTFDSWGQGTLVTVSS
VL: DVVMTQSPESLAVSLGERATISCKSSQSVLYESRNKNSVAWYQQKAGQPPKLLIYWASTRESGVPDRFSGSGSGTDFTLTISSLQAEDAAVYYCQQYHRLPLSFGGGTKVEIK

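The starting antibody came from a phage panning campaign against this peptide. AAYL49 was designed without a model: most single CDR substitutions and a random sample of double and triple ones. The assay is AlphaSeq: two haploid yeast populations carry antibody and antigen on their surface. Pairs that bind mate more often; barcode pairs of the diploids are counted by sequencing. A regression on co-assayed BCL2-family reference pairs converts the normalised counts of each replicate to an apparent Kd. Each pool was mated in three replicate cultures.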

Positions count from residue 1 of the parent VH; I34W puts W in place of I.
Scale: log10 of Kd in nM, estimated from mating counts; low values are strong binders.
A mean of the replicates is given; it leaves out those without a signal.
Where no diploid with the target was found in that replicate, the entry reads "ND": below detection, most likely a poor binder, though not proof of it.
Parent in this assay: reference entry 0.65, copy in this library 4.11 (one replicate of three).
Background: pairings of library AAYL49 with three empty control strains gave a value in 15% of cases (median 4.06, 5th percentile 2.83). Values in that range, when seen in few replicates, are hard to tell from nonspecific mating. The control count says in how many pairings with the empty strains this scFv gave a signal, with their mean in brackets.

changes,"log10 Kd, replicates","log10 Kd (nM), mean",empty controls
I34W+Y52C+R57P,ND / ND / ND,ND,1 of 9 (2.78)
G26L+G61K+V64M,ND / ND / ND,ND,1 of 9 (3.30)
S35F+Y52Q+G55D,ND / 4.84 / 5.46,5.15,5 of 9 (4.58)
T58I+G99K+S107H,2.63 / 2.75 / 2.80,2.73,2 of 9 (5.03)
Y52H+R57V+F105N,ND / ND / ND,ND,1 of 9 (2.85)
T28Y+L29Y+V64L,ND / ND / ND,ND,1 of 9 (3.16)
D62H+V64Y+G103P,3.49 / ND / ND,3.49,2 of 9 (4.34)
V50I+F105L+S107L,ND / 2.99 / 3.69,3.34,0 of 9
G26P+R56W+G99L,ND / ND / ND,ND,2 of 9 (4.08)
F27L+Y60S+S107I,ND / ND / 5.54,5.54,2 of 9 (4.45)
G26D+T28Q+I34S,0.55 / 0.75 / 1.03,0.78,0 of 9
N30S+R57Q+T104A,ND / ND / ND,ND,0 of 9
I51V+D54L+R57S,ND / ND / ND,ND,0 of 9
I51V+Y52A+S53M,ND / ND / ND,ND,2 of 9 (4.55)
R57L+T58R+K65R,3.25 / ND / ND,3.25,1 of 9 (4.71)
I34P+G55S+Y60R,3.34 / 3.57 / ND,3.45,2 of 9 (3.78)
L29K+I51T+F59L,5.20 / ND / ND,5.20,1 of 9 (2.48)
D62Q+G99S+S107G,ND / ND / ND,ND,0 of 9
F27Y+Y32R+A101L,ND / ND / ND,ND,0 of 9
L29N+F59M+G61Y,ND / 3.38 / 5.68,4.53,3 of 9 (4.03)
S35R+F105K+D106E,ND / ND / ND,ND,4 of 9 (4.62)
T28N+R56E+T104G,ND / ND / 4.94,4.94,4 of 9 (4.47)
G55H+F105I+S107I,ND / ND / ND,ND,0 of 9
L29W+I51P+R57V,ND / ND / ND,ND,0 of 9
D62Q+V64H,3.44 / ND / ND,3.44,0 of 9
G61S+R100N,-0.15 / 0.15 / 0.01,0.01,3 of 9 (4.50)
S35D+D54Y+S63L,ND / 2.99 / ND,2.99,1 of 9 (2.91)
V64G+A101C,2.91 / 2.75 / 2.98,2.88,1 of 9 (4.72)
V50S+Y52N+T58D,ND / ND / 4.45,4.45,1 of 9 (3.84)
A101M+G103Y+S107P,ND / ND / ND,ND,1 of 9 (2.80)
G26C+S31R+T104Y,ND / ND / ND,ND,0 of 9
G61V+V64K+K65C,ND / ND / ND,ND,2 of 9 (3.80)
N30Y+G33N+F59E,ND / ND / ND,ND,3 of 9 (3.69)
F27Y+G99R+A102Q,ND / 4.08 / ND,4.08,2 of 9 (4.56)
T28H+Y32G+A102P,6.56 / ND / ND,6.56,2 of 9 (4.49)
G33R+S35E+F105C,1.48 / 1.97 / 1.75,1.73,3 of 9 (3.68)
S35D+G99D+F105M,ND / 3.39 / ND,3.39,0 of 9
Y32F+S53Q+S63P,ND / 3.60 / ND,3.60,6 of 9 (4.47)
I34W+R57F+G61T,ND / 4.19 / ND,4.19,3 of 9 (4.36)